The source made the active and inactive calls. The calls are words filed in the database; no cut-off is given here.

Experimental findings from ChEMBL document CHEMBL4043286, “Exploiting the S4-S5 Specificity of Human Neutrophil Proteinase 3 to Improve the Potency of Peptidyl Di(chlorophenyl)-phosphonate Ester Inhibitors: A Kinetic and Molecular Modeling Analysis” (J Med Chem, 2018) are described below.

Assay [1] deals with T1, Myeloblastin (Homo sapiens) (UniProt P24158).
T1 sequence (whole entry): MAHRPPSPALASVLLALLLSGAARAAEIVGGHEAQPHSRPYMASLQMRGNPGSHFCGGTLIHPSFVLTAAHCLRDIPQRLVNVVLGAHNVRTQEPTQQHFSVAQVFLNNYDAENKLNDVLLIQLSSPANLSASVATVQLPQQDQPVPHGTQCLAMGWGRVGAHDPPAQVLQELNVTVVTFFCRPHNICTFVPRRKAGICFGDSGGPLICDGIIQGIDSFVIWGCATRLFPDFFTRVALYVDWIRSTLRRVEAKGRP
Briefly: Inhibition of human PR3 assessed as inactivation rate constant at 0.6 uM using ABZ-VADnVADYQ-EDDnp as substrate by FRET assay.

For assay [2], the species on record is Macaca fascicularis. The assay is described as follows: Inhibition of cynomolgus monkey neutrophil PR3 assessed as inactivation rate constant using ABZ-VADnVADYQ-EDDnp as substrate after 20 mins by FRET assay.
Assay [3] deals with T2, Neutrophil elastase (Homo sapiens) (UniProt P08246).
T2 sequence (whole entry): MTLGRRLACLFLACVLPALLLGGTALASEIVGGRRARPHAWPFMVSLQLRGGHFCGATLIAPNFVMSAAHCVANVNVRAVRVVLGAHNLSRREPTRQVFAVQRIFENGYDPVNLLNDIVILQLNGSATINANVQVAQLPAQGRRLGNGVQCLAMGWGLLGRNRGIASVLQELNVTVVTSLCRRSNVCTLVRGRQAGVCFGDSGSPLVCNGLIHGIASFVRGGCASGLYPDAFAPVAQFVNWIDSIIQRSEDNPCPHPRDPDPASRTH
Briefly: Inhibition of human NE assessed as inactivation rate constant at using ABZ-APEEIMRRQ-EDDnp as substrate by FRET assay.

Assay [4] deals with T1, Myeloblastin (Homo sapiens). The assay is described as follows: Inhibition of human PR3 assessed as inactivation rate constant at 0.025 uM using ABZ-VADnVADYQ-EDDnp as substrate by FRET assay.
For assay [5] the target is unchanged. Briefly: Inhibition of human PR3 assessed as inactivation rate constant at 0.15 uM using ABZ-VADnVADYQ-EDDnp as substrate by FRET assay.
Assay [6] shares this target. Briefly: Inhibition of human PR3 assessed as inactivation rate constant at 0.1 uM using ABZ-VADnVADYQ-EDDnp as substrate by FRET assay.

Turning to `CC(NC(=O)[C@H](CC(=O)O)NC(=O)[C@H](Cc1ccc(O)cc1)NC(=O)[C@@H]1CCCN1C(=O)CCOCCOCCNC(=O)CCOCCOCCNC(=O)CCCC[C@@H]1SC[C@@H]2NC(=O)N[C@@H]21)P(=O)(Oc1ccc(Cl)cc1)Oc1ccc(Cl)cc1` (some centres undefined), the K in assay [1] stood at 274 M⁻¹ s⁻¹. For the same compound, the inhibition result in assay [2] was “Active”. Further, the K entry in assay [3] was “inactive”.

Regarding `CCCC(NC(=O)[C@H](CC(=O)O)NC(=O)[C@H](Cc1ccc(O)cc1)NC(=O)[C@@H]1CCCN1C(=O)CCCC[C@@H]1SC[C@@H]2NC(=O)N[C@@H]21)P(=O)(Oc1ccc(Cl)cc1)Oc1ccc(Cl)cc1` (some centres undefined), in assay [2], the inhibition result is “Active”. In addition, in assay [3], the K result is “inactive”. Besides, in assay [4], the K came out at 18600 M⁻¹ s⁻¹.

On to `CC(C)[C@H](NC(=O)CCCC[C@@H]1SC[C@@H]2NC(=O)N[C@@H]21)C(=O)N[C@@H](Cc1ccc(O)cc1)C(=O)N[C@@H](CC(=O)O)C(=O)NC(C)P(=O)(Oc1ccc(Cl)cc1)Oc1ccc(Cl)cc1` (some centres undefined), for which the inhibition result in assay [2] is “Active”. The K entry in assay [3] was “inactive”. Further, the K in assay [4] turned out to be 17400 M⁻¹ s⁻¹.

As for `CCCC[C@H](NC(=O)CCCC[C@@H]1SC[C@@H]2NC(=O)N[C@@H]21)C(=O)N[C@@H](Cc1ccc(O)cc1)C(=O)N[C@@H](CC(=O)O)C(=O)NC(C)P(=O)(Oc1ccc(Cl)cc1)Oc1ccc(Cl)cc1` (some centres undefined), the inhibition result in assay [2] is “Active”. In addition, in assay [3], the K result was “inactive”. Moreover, the K in assay [4] is 10400 M⁻¹ s⁻¹.

For `CC[C@H](C)[C@H](NC(=O)CCCC[C@@H]1SC[C@@H]2NC(=O)N[C@@H]21)C(=O)N[C@@H](Cc1ccc(O)cc1)C(=O)N[C@@H](CC(=O)O)C(=O)NC(C)P(=O)(Oc1ccc(Cl)cc1)Oc1ccc(Cl)cc1` (some centres undefined), the inhibition entry in assay [2] is “Active”. For the same compound, the K result in assay [3] is “inactive”. Moreover, the K in assay [5] was 8700 M⁻¹ s⁻¹.

Regarding `CC(C)C[C@H](NC(=O)CCCC[C@@H]1SC[C@@H]2NC(=O)N[C@@H]21)C(=O)N[C@@H](Cc1ccc(O)cc1)C(=O)N[C@@H](CC(=O)O)C(=O)NC(C)P(=O)(Oc1ccc(Cl)cc1)Oc1ccc(Cl)cc1` (some centres undefined), the inhibition result in assay [2] is “Active”. The K entry in assay [3] is “inactive”. Also, the K in assay [5] is 4370 M⁻¹ s⁻¹.

In the case of `CCC(NC(=O)[C@H](CC(=O)O)NC(=O)[C@H](Cc1ccc(O)cc1)NC(=O)[C@@H]1CCCN1C(=O)CCCC[C@@H]1SC[C@@H]2NC(=O)N[C@@H]21)P(=O)(Oc1ccc(Cl)cc1)Oc1ccc(Cl)cc1` (some centres undefined), the inhibition result in assay [2] is “Active”. Also, the K result in assay [3] was “inactive”. In assay [6], the K was 4680 M⁻¹ s⁻¹.

`CC(NC(=O)[C@H](CC(=O)O)NC(=O)[C@H](Cc1ccc(O)cc1)NC(=O)[C@H](CCCOCc1ccccc1)NC(=O)CCCC[C@@H]1SC[C@@H]2NC(=O)N[C@@H]21)P(=O)(Oc1ccc(Cl)cc1)Oc1ccc(Cl)cc1` (some centres undefined): in assay [2], the inhibition result is “Active”. Further, in assay [3], the K result was “inactive”. Besides, the K in assay [6] came out at 1740 M⁻¹ s⁻¹.
